Here are results for two molecules from PMC2932872 (Journal of agricultural and food chemistry, 2010).

The data set is described as follows: Stability of ^14C-MPS and ^14C-MPO in culture media. The format is physicochemical. As to conditions: DMEM/F12 culture medium with 1% fetal bovine serum, no cells.

By half-life is commonly meant the time in which the quantity being followed falls by half. `COP(=S)(OC)Oc1ccc([N+](=O)[O-])cc1` [MPS, OO, -dimethyl O-4-nitrophenyl phosphorothioate] gave a half-life at 1 μM of 91.7 h. For the molecule `COP(=O)(OC)Oc1ccc([N+](=O)[O-])cc1` [MPO, methyl paraoxon], the half-life at 1 μM was 102 h. The half-life at 1 μM values of the last two molecules are within 1.5-fold of each other.
